Reference: ChEMBL document CHEMBL4765409, “Synthesis and biological evaluation of geniposide derivatives as potent and selective PTPlB inhibitors” (Eur J Med Chem, 2020)

Columns and labels:
Homo sapiens [1] = species: Homo sapiens; experiment: Selectivity ratio of IC50 for recombinant human TCPTP to IC50 for inhibition of recombinant human PTP1B
Homo sapiens [2] = species: Homo sapiens; experiment: Selectivity ratio of IC50 for recombinant SHP2 (unknown origin) to IC50 for inhibition of recombinant human PTP1B

Row | SMILES | Ratio IC50 (Homo sapiens [1]) | Ratio IC50 (Homo sapiens [2])
1 | CCOS(=O)(=O)/C=C/c1ccc(OCC2=CC[C@@H]3C(C(=O)Nc4ccc(Oc5ccc(-c6ccccc6)cc5)cc4)=CO[C@@H](OC)[C@H]23)cc1 | 3 | 3
2 | CCOS(=O)(=O)/C=C/c1ccc(OCC2=CC[C@@H]3C(C(=O)Nc4ccc(Oc5ccc(Br)cc5Cl)cc4)=CO[C@@H](OCc4ccccc4)[C@H]23)cc1 | 4 | 4
3 | O=C(O)C1=CO[C@@H](O[C@@H]2O[C@H](COCc3ccccc3)[C@@H](OCc3ccccc3)[C@H](OCc3ccccc3)[C@H]2OCc2ccccc2)[C@@H]2C(COCc3ccccc3)=CC[C@H]12 | 4 | 9
